{
  "source": "PubChem BioAssay AID493244",
  "about": "(The Scripps Research Institute Molecular Screening Center, 2011)",
  "note": "The list shows a part of the results, in another mix than the full data. Activity calls are given as the source filed them.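 How the source made its calls: active means inhibition above the mean inhibition of all tested compounds plus 3 SD (cut at about 17% in these data); inactive means the rest.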",
  "data": [
    {"biological_target": "Troponin I, cardiac muscle (Homo sapiens) + Troponin T, cardiac muscle (Homo sapiens) + Troponin C, slow skeletal and cardiac muscles (Homo sapiens) (UniProt P19429+P45379+P63316)", "assay": "cardiac RTF calcium sensitivity inhibitors, primary screen, biochemical, IANBD-TnC fluorescence, EC70 calcium (AID 493244);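 further: assay run at fixed EC70 calcium of 1.6 mM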", "settings": "IANBD-labeled cardiac RTF, Ca2+ fluorescence; at 7.15 µM; stronger effect = higher value", "values": [
      {"smiles": "O=P(Nc1nc2ccc(Cl)cc2s1)(c1ccccc1)c1ccccc1", "inhibition": "inactive: 4.9%"},
      {"smiles": "O=C(O)c1ccccc1[As](=O)(O)O", "inhibition": "inactive: 1.09%"},
      {"smiles": "CC(=O)Nc1ccc([As](=O)(O)O)cc1", "inhibition": "inactive: -14.8%"},
      {"smiles": "CCCC1OP(N)(=O)OCC1CC", "note": "(stereo unspecified)", "inhibition": "inactive: 0.3%"},
      {"smiles": "CCOP(=O)(Nc1ccccc1)OCC", "inhibition": "inactive: -19%"},
      {"smiles": "Cc1cc(SC(NC(=O)c2ccc(F)cc2)C(Cl)(Cl)Cl)ncn1", "note": "(stereo unspecified)", "inhibition": "inactive: 2.72%"},
      {"smiles": "CN(C(=O)Cc1ccc(Cl)c(Cl)c1)[C@H]1CCCC[C@@H]1N1CCCC1", "inhibition": "inactive: -4.78%"},
      {"smiles": "Cc1ccc(NP(=O)(Oc2ccccc2F)Oc2ccccc2F)nc1", "inhibition": "inactive: -0.45%"},
      {"smiles": "Nc1cccc2ccc([As](=O)(O)O)cc12", "inhibition": "inactive: -3.61%"},
      {"smiles": "CCN(N=Nc1nonc1N)c1nonc1N", "inhibition": "inactive: 2.69%"},
      {"smiles": "CN(C(=O)Cc1ccc(Cl)c(Cl)c1)[C@H]1CCCC[C@H]1N1CCCC1", "inhibition": "inactive: 6.56%"},
      {"smiles": "Cc1ccc(N/C(=N/P(=O)(N2CCOCC2)N2CCOCC2)N2CCOCC2)cc1", "inhibition": "inactive: -6.79%"},
      {"smiles": "NC(=O)c1cc([N+](=O)[O-])cc([N+](=O)[O-])c1N", "inhibition": "inactive: 0.61%"},
      {"smiles": "Clc1ccc(Cl)c(NC2=NCC(CBr)S2)c1", "note": "(stereo unspecified)", "inhibition": "inactive: -2.22%"},
      {"smiles": "CN1CCCC(OC(=O)C(c2ccccc2)c2ccccc2)C1", "note": "(stereo unspecified)", "inhibition": "inactive: -4.74%"},
      {"smiles": "COc1ccccc1OP(=O)(Nc1ccc(C)cn1)Oc1ccccc1OC", "inhibition": "inactive: 10.4%"},
      {"smiles": "Oc1ccccc1CNc1ccccn1", "inhibition": "inactive: -1.8%"},
      {"smiles": "O=C(NC(Sc1ccncn1)C(Cl)(Cl)Cl)c1ccccc1", "note": "(stereo unspecified)", "inhibition": "inactive: -3.82%"},
      {"smiles": "CC(C)CC(=O)NC(Sc1ccc(Cl)cc1)C(Cl)(Cl)Cl", "note": "(stereo unspecified)", "inhibition": "inactive: 2.69%"},
      {"smiles": "Nc1cc(N)c2nonc2c1[N+](=O)[O-]", "inhibition": "inactive: 3.25%"},
      {"smiles": "COc1ccc(C2=NCC(CBr)S2)cc1", "note": "(stereo unspecified)", "inhibition": "inactive: -3.98%"},
      {"smiles": "Cc1ccc(NP(=O)(Oc2ccccc2)Oc2ccccc2)nc1", "inhibition": "inactive: -11%"},
      {"smiles": "O=[N+]([O-])c1cc([N+](=O)[O-])c(CCNc2ccccc2)c([N+](=O)[O-])c1", "inhibition": "inactive: -11.4%"},
      {"smiles": "CCc1nc2c(n1)c1c(non1O)c1c2no[n+]1[O-]", "inhibition": "inactive: -7.46%"},
      {"smiles": "CC(=O)N1C2C3N(C(C)=O)C1C1N(C(C)=O)C(C(N1C(C)=O)N3C(C)=O)N2C(C)=O", "inhibition": "inactive: -9.55%"},
      {"smiles": "O=[N+]([O-])c1cccc2n[nH]nc12", "inhibition": "inactive: -5.59%"},
      {"smiles": "CCN(/C(=N/P(=O)(N1CCOCC1)N1CCOCC1)N1CCOCC1)c1ccc(OC)cc1", "inhibition": "inactive: 3.09%"},
      {"smiles": "Nc1ccc([As](=O)(O)c2ccc(N)cc2)cc1", "inhibition": "inactive: 4.14%"},
      {"smiles": "C[N+]1=C2C=CC=CC=C2SC12C([N+](=O)[O-])=CC([N+](=O)[O-])=C[C-]2[N+](=O)[O-]", "note": "(stereo unspecified)", "inhibition": "inactive: 1.95%"},
      {"smiles": "CC1CCN(C(=O)Oc2c(Cl)cc(Cl)c3cccnc23)CC1", "inhibition": "inactive: 6%"},
      {"smiles": "CC(C)=N/N=C(\\N)N[N+](=O)[O-]", "inhibition": "inactive: 8.27%"},
      {"smiles": "CN(C)C(=O)OCCc1n(C)cc[n+]1C", "inhibition": "inactive: -22.4%"},
      {"smiles": "O=P1(N(CCCl)CCCl)OCCCS1", "note": "(stereo unspecified)", "inhibition": "inactive: 0.33%"},
      {"smiles": "O=C(Nc1cc([As](=O)(O)O)ccc1O)c1ccccc1", "inhibition": "inactive: -7.53%"},
      {"smiles": "O=[N+]([O-])c1ncn(CCn2ncnc2[N+](=O)[O-])n1", "inhibition": "inactive: -0.9%"},
      {"smiles": "CC(C)(C)C(=O)NC(Sc1ccncn1)C(Cl)(Cl)Cl", "note": "(stereo unspecified)", "inhibition": "inactive: -8.03%"},
      {"smiles": "O=C(O)CNc1ccc([As](=O)(O)O)cc1", "inhibition": "inactive: -5.03%"},
      {"smiles": "O=[N+]([O-])c1cccc(NC2=NCC(CBr)S2)c1", "note": "(stereo unspecified)", "inhibition": "inactive: -0.37%"},
      {"smiles": "COC(=O)C1(C)COP(=O)(Nc2ccccc2)OC1", "note": "(stereo unspecified)", "inhibition": "inactive: -3.85%"},
      {"smiles": "CN(C)C1(CNC(=O)c2ccc(Cl)c(S(N)(=O)=O)c2)CCCCC1", "inhibition": "inactive: 3.91%"},
      {"smiles": "O=P(Nc1ccccn1)(c1ccc(Br)cc1)c1ccc(Br)cc1", "inhibition": "inactive: 1.63%"},
      {"smiles": "COc1ccc(N)c([N+](=O)[O-])c1[N+](=O)[O-]", "inhibition": "inactive: 1.41%"},
      {"smiles": "O=P(Nc1nc2ccccc2s1)(c1ccccc1)c1ccccc1", "inhibition": "inactive: 3.56%"},
      {"smiles": "C[C@H]1OP(=O)(Oc2ccccc2)[C@H](O)[C@H](O)[C@H]1N=[N+]=[N-]", "note": "(stereo partly specified)", "inhibition": "inactive: -3.05%"},
      {"smiles": "O=[As](O)(c1ccccc1)c1ccc(O)cc1", "inhibition": "inactive: 6.31%"},
      {"smiles": "CC(=O)NC(SC(=S)N(C)C)C(Cl)(Cl)Cl", "note": "(stereo unspecified)", "inhibition": "inactive: -3.82%"},
      {"smiles": "O=[N+]([O-])c1ncn(CCn2cnc([N+](=O)[O-])n2)n1", "inhibition": "inactive: -11%"},
      {"smiles": "O=[N+]([O-])c1ccc(O)c(/C=N/Nc2ccc([N+](=O)[O-])cc2[N+](=O)[O-])c1", "inhibition": "inactive: -11.9%"},
      {"smiles": "O=C(OC1CN2CCC1CC2)c1cccc(Cl)c1", "note": "(stereo unspecified)", "inhibition": "inactive: -2.24%"},
      {"smiles": "Nc1ccc([As](=O)(O)c2ccc([N+](=O)[O-])cc2)cc1", "inhibition": "inactive: -5.48%"},
      {"smiles": "C(Cc1nn[nH]n1)Cc1nn[nH]n1", "inhibition": "inactive: -2.42%"},
      {"smiles": "O=P(Nc1nccs1)(c1ccccc1)c1ccccc1", "inhibition": "inactive: -19.8%"},
      {"smiles": "CC(C)C(=O)NC(Sc1ccccc1)C(Cl)(Cl)Cl", "note": "(stereo unspecified)", "inhibition": "inactive: -5.47%"},
      {"smiles": "c1nnnn1CCn1cnnn1", "inhibition": "inactive: -3.65%"},
      {"smiles": "O=P1(Nc2nc3ccc(Cl)cc3s2)COc2ccccc2O1", "note": "(stereo unspecified)", "inhibition": "inactive: -0.53%"},
      {"smiles": "CCOc1ccc(C2=NCC(CBr)S2)cc1", "note": "(stereo unspecified)", "inhibition": "inactive: 8.3%"},
      {"smiles": "CC(C)(C)C(=O)NC(Sc1ccccc1)C(Cl)(Cl)Cl", "note": "(stereo unspecified)", "inhibition": "inactive: -12.2%"},
      {"smiles": "CCc1cc(O)c([N+](=O)[O-])c(C)c1[N+](=O)[O-]", "inhibition": "inactive: -4.23%"},
      {"smiles": "Cc1ccccc1CN(C)C(=O)COC(=O)C(O)(c1ccccc1)c1ccccc1", "inhibition": "inactive: 1.89%"},
      {"smiles": "C[C@@H]1C=CCP(=O)(Oc2ccccc2)O1", "note": "(stereo partly specified)", "inhibition": "inactive: 9.38%"},
      {"smiles": "C[C@H]1OP(=O)(Oc2ccccc2)C[C@@H]2O[C@@H]21", "note": "(stereo partly specified)", "inhibition": "inactive: -11.4%"},
      {"smiles": "N#C/C(=C\\c1ccc(N(CCBr)CCBr)cc1)C(N)=O", "inhibition": "inactive: 2.92%"},
      {"smiles": "CC(=O)c1ccc(N2CC2c2ccncc2)cc1", "note": "(stereo unspecified)", "inhibition": "inactive: -5.49%"},
      {"smiles": "COC(=O)C1(C)COP(=O)(NCc2ccccc2)OC1", "note": "(stereo unspecified)", "inhibition": "inactive: -2.15%"},
      {"smiles": "CC(=O)Nc1ccc([As](=O)(O)O)c(O)c1", "inhibition": "inactive: 5.91%"},
      {"smiles": "CC(=O)Nc1ccc(Oc2c([N+](=O)[O-])cc([N+](=O)[O-])cc2[N+](=O)[O-])cc1", "inhibition": "inactive: 1.78%"}
    ]}
  ]
}
